Results taken from ChEMBL document CHEMBL3885861, “Open TG-GATES”.

Organism: Rattus norvegicus
Assay: Open TG-GATES - Regimen: Daily Repeat
Format: toxicity, organism-based, Sprague-Dawley
Design: regimen Daily Repeat, gender Male, age 6 weeks
Conditions: in vivo, po, route gavage; for PT: tissue Blood; for LIVER: tissue Liver
[1] = 0 mg/kg, 72 h, dose level Control, time 3 day
[2] = 0 mg/kg, 72 h, tissue Plasma, dose level Control, time 3 day
[3] = 0 mg/kg, […], dose level Control, time 7 day
[4] = 0 mg/kg, […], dose level Control, time 14 day
[5] = 0 mg/kg, […], dose level Control, time 28 day
[6] = 0 mg/kg, […], tissue Plasma, dose level Control, time 14 day
[7] = 0 mg/kg, […], tissue Plasma, dose level Control, time 28 day
[8] = 10 mg/kg, 72 h, tissue Plasma, dose level Low, time 3 day
[9] = 10 mg/kg, […], dose level Low, time 7 day
[10] = 10 mg/kg, […], dose level Low, time 14 day
[11] = 10 mg/kg, […], dose level Low, time 28 day
[12] = 10 mg/kg, […], tissue Plasma, dose level Low, time 7 day
[13] = 10 mg/kg, […], tissue Plasma, dose level Low, time 14 day
[14] = 30 mg/kg, 72 h, dose level Middle, time 3 day
[15] = 30 mg/kg, 72 h, tissue Plasma, dose level Middle, time 3 day
[16] = 30 mg/kg, […], dose level Middle, time 7 day
[17] = 30 mg/kg, […], dose level Middle, time 14 day
[18] = 30 mg/kg, […], dose level Middle, time 28 day
[19] = 30 mg/kg, […], tissue Plasma, dose level Middle, time 7 day
[20] = 30 mg/kg, […], tissue Plasma, dose level Middle, time 14 day
[21] = 30 mg/kg, […], tissue Plasma, dose level Middle, time 28 day
[22] = 100 mg/kg, 72 h, dose level High, time 3 day
[23] = 100 mg/kg, 72 h, tissue Plasma, dose level High, time 3 day
[24] = 100 mg/kg, […], dose level High, time 7 day
[25] = 100 mg/kg, […], dose level High, time 14 day
[26] = 100 mg/kg, […], dose level High, time 28 day
[27] = 100 mg/kg, […], tissue Plasma, dose level High, time 7 day
[28] = 100 mg/kg, […], tissue Plasma, dose level High, time 14 day

`CN(C)CCC=C1c2ccccc2COc2ccccc21` [DOXEPIN] was tested, and the PT [1] was 12.9 s, the LIVER [1] was 10.9 g and the Ca [2] was 10.9 mg/dL. For the same compound, the Cl [2] was 106 meq/L, the PT [3] was 13 s and the PT [4] was 12.7 s. The PT [5] was 12.8 s, the LIVER [3] was 12.3 g and the LIVER [4] was 13.5 g. The LIVER [5] was 17.6 g, the Ca (0 mg/kg, […], tissue Plasma, dose level Control, time 7 day) was 10.9 mg/dL and the Ca [6] was 10.7 mg/dL. For the same compound, the Cl [6] was 106.8 meq/L, the Ca [7] was 10.6 mg/dL and the Cl [7] was 105.8 meq/L. The PT (10 mg/kg, 72 h, dose level Low, time 3 day) was 12.9 s, the Ca [8] was 10.9 mg/dL and the Cl [8] was 106.2 meq/L. The PT [9] was 12.9 s, the PT [10] was 12.9 s and the PT [11] was 12.9 s. It also gave an LIVER [9] of 12 g, an LIVER [10] of 14.2 g and an LIVER [11] of 15.1 g. For the same compound, the Ca [12] was 10.9 mg/dL, the Cl [12] was 106.4 meq/L and the Ca [13] was 10.8 mg/dL. For the same compound, the Cl [13] was 106.2 meq/L, the TG [13] was 138.4 mg/dL and the Cl (10 mg/kg, […], tissue Plasma, dose level Low, time 28 day) was 107.6 meq/L. For the same compound, the PT [14] was 13.1 s, the LIVER [14] was 10.2 g and the Ca [15] was 11.2 mg/dL. It also gave a Cl [15] of 107.4 meq/L, a PT [16] of 13 s and a PT [17] of 12.9 s. For the same compound, the PT [18] was 13.3 s, the LIVER [16] was 11.9 g and the LIVER [17] was 13.4 g. For the same compound, the LIVER [18] was 16.3 g, the Ca [19] was 10.9 mg/dL and the Cl [19] was 105.8 meq/L. The Ca [20] was 10.8 mg/dL, the Cl [20] was 106.8 meq/L and the BUN [21] was 17 mg/dL. For the same compound, the Ca [21] was 10.4 mg/dL, the Cl [21] was 106.8 meq/L and the PT [22] was 13.2 s. For the same compound, the LIVER [22] was 9.3 g, the Ca [23] was 11.1 mg/dL and the Cl [23] was 105.6 meq/L. The PT [24] was 12.9 s, the PT [25] was 13 s and the PT [26] was 13.3 s. It also gave an LIVER [24] of 11 g, an LIVER [25] of 12.5 g and an LIVER [26] of 14.2 g. It also gave a Ca [27] of 11.1 mg/dL, a Cl [27] of 104.6 meq/L and a Ca [28] of 10.8 mg/dL. For the same compound, the Cl [28] was 103.8 meq/L and the Cl (100 mg/kg, […], tissue Plasma, dose level High, time 28 day) was 104.4 meq/L.
